# Measured values taken from PubChem BioAssay AID651548 (Broad Institute, 2012).
# By UniProt entry, the sequences of proteins in these tests, tags left out.
# UniProt Q15910, whole entry: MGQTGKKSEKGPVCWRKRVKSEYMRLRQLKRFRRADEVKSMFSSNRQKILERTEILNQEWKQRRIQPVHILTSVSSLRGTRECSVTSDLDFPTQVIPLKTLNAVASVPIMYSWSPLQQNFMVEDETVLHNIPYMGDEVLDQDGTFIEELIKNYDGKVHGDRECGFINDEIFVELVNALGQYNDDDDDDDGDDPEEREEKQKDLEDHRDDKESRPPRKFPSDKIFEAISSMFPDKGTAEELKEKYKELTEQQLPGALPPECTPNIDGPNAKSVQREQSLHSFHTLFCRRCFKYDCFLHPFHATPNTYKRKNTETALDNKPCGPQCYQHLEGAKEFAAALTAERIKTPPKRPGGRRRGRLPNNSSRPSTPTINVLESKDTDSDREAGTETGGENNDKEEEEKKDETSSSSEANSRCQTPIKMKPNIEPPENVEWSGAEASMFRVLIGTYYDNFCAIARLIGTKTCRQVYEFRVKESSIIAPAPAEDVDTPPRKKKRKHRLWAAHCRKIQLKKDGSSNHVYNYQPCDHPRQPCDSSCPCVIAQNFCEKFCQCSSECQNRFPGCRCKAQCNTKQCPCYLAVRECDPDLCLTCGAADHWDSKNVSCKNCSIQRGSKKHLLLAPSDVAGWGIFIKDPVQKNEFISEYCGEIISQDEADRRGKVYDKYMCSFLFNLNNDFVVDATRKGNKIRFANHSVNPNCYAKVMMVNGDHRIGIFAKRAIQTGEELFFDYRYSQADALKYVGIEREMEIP
# Only a part is listed here, and it is no random draw. Some structures show a salt or complex split into parts, the way the source records it. The source made the active and inactive calls.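 How the source made its calls: active means mean inhibition of replicates at least 50% and every single replicate also reaching 50%; inconclusive means mean inhibition at least 50% but some replicate falls below 50%; inactive means mean inhibition under 50%.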
# Molecular target: Histone-lysine N-methyltransferase EZH2 (Homo sapiens) (UniProt Q15910)
# Test: EZH2/PRC2 methyltransferase inhibitors, primary screen, biochemical, DELFIA time-resolved fluorescence, single point (AID 651548);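 further: dimethyl H3K27 on biotinylated H3 21-44 peptide detected by antibody; plate controls were median neutral control wells for no effect and median positive control wells for full effect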
# Settings: PRC2 H3K27 methylation, DELFIA TRF, 1 h; at 12.5 µM; hits give high values
row,Compound,inhibition
1,C/C1=C2N=C(/C=C3N=C(/C(C)=C4\[N-][C@@](C)([C@@H]5N=C1[C@](C)(CCC(=O)NCC(C)OP(=O)(O)O[C@@H]1[C@H](O)[C@H](n6cnc7cc(C)c(C)cc76)O[C@H]1CO)[C@H]5CC(N)=O)[C@@](C)(CC(N)=O)[C@@H]4CCC(N)=O)[C@@](C)(CC(N)=O)[C@@H]\3CCC(N)=O)C(C)(C)[C@@H]/2CCC(N)=O.[C-]#N.[Co+3] (stereo partly specified),inactive: -6.46%
